Assay results reported in PubChem BioAssay AID588458 (Sanford-Burnham Center for Chemical Genomics, 2011).
Only a part is listed here, and it is no random draw. Some structures show a salt or complex split into parts, the way the source records it. Active and inactive are the calls of the source. Cut-off read from the data, not from the text of the source: active = inhibition above about 50%; inactive = the rest.

The chains behind the UniProt entries cited, without tags or fusion partners. Residues count along the entry.
UniProt P26358, 504-1616 limits assumed: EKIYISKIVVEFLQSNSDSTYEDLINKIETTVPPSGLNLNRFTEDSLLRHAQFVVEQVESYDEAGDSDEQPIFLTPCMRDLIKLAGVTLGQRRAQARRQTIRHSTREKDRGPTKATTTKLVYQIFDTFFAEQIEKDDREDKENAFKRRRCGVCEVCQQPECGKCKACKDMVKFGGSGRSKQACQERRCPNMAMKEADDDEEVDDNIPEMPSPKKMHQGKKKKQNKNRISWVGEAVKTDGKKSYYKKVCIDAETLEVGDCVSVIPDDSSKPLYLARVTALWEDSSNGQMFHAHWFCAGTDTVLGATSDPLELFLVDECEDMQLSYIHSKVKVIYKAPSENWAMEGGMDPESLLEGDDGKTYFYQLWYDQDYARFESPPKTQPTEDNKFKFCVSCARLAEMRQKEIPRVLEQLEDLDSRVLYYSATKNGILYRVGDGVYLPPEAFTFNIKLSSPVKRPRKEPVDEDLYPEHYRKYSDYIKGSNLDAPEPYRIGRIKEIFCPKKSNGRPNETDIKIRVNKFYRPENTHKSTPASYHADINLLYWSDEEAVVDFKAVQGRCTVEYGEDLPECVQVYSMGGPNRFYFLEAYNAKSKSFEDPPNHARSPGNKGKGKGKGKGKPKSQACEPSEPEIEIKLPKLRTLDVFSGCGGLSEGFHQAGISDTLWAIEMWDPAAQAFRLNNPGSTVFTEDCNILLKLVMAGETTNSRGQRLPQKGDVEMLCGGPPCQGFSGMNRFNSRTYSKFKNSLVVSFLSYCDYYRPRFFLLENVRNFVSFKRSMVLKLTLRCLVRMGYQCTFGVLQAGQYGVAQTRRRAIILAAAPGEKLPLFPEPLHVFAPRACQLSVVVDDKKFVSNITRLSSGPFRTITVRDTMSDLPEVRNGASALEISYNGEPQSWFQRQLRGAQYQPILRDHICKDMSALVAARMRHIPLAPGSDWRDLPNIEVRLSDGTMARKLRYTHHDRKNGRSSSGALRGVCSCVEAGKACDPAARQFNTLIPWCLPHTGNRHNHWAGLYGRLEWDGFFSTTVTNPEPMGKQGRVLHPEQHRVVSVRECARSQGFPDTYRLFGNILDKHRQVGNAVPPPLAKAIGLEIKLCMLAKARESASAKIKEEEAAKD

biological target: DNA (cytosine-5)-methyltransferase 1 (Homo sapiens) (UniProt P26358); test: inhibition of DNA methyltransferase DNMT1 – biochemical, molecular beacon, fluorescence, HinP1I cleavage, uHTS, primary screen (AID 588458); conditions: at 10 µM, stronger effect = higher value

Row | Compound | inhibition (reported as % activation of signal)
1 | CP(=O)(Nc1ccccc1F)Oc1ccccc1 (stereo not given) | inactive: 0.54%
2 | CC(C)c1ccc(OP(C)(=O)Nc2ccc(SC(F)(F)F)cc2)cc1 (stereo not given) | inactive: -21.8%
3 | O=[N+]([O-])c1cc([N+](=O)[O-])c(Nc2ccc(Cl)cc2)c([N+](=O)[O-])c1 | inactive: 10.2%
4 | COc1ccc2c(c1O)-c1c(O)c(OC)cc3c1[C@H](C2)[N+](C)(C)CC3.O=[N+]([O-])c1cc([N+](=O)[O-])c([O-])c([N+](=O)[O-])c1[O-] | inactive: 12.6%
5 | O=C(OC1CN2CCC1CC2)c1ccc([N+](=O)[O-])cc1 (stereo not given) | inactive: 0.36%
6 | O=C(OCCN1CCN(CCOCc2ccccc2)CC1)C(O)(c1ccccc1)c1ccccc1 | inactive: 1.71%
7 | CCOC(=O)c1ccc(NP(C)(=O)Oc2ccc(F)cc2)cc1 (stereo not given) | inactive: 2.28%
8 | COc1ccc(OP(C)(=O)Nc2ccc(SC(F)(F)F)cc2)cc1 (stereo not given) | inactive: -0.63%
9 | CP(=O)(Nc1ccccc1)Oc1ccc(F)cc1 (stereo not given) | inactive: 3.59%
10 | O=[N+]([O-])c1cc([N+](=O)[O-])c(OC2CCCCC2O)c([N+](=O)[O-])c1 (stereo not given) | inactive: -1.32%
11 | CCCCCOc1ccc(NP(C)(=O)Oc2ccc(Cl)cc2Cl)cc1 (stereo not given) | inactive: -14%
12 | Cc1c([N+](=O)[O-])cc([N+](=O)[O-])c(Br)c1[N+](=O)[O-] | inactive: 5.88%
13 | CCN(CC)CCCOC(=O)C(O)(c1ccccc1)C1CCCCC1 (stereo not given) | inactive: 0.81%
14 | CN(C)CCOC(=O)C(O)(c1ccccc1)C1CCCCC1 (stereo not given) | inactive: 0.7%
15 | COc1ccc(NP(C)(=O)Oc2ccccc2OC)cc1 (stereo not given) | inactive: 0.65%
16 | COc1ccc(OP(C)(=O)Nc2cccc(Br)c2)cc1 (stereo not given) | inactive: 2.1%
17 | Cc1c(C(c2ccc3c(c2)OCO3)c2c(C)n(C)n(-c3ccccc3)c2=O)c(=O)n(-c2ccccc2)n1C.O=[N+]([O-])c1cc([N+](=O)[O-])c(O)c([N+](=O)[O-])c1 | inactive: 1.13%
18 | O=[N+]([O-])c1ccc(OP2(=O)COCCO2)cc1 (stereo not given) | inactive: 2.2%
19 | O=[N+]([O-])c1cc([N+](=O)[O-])c(NCC2CCS(=O)(=O)C2)c([N+](=O)[O-])c1 (stereo not given) | inactive: 15.7%
20 | Cc1cc(-c2cccc3ccccc23)c(C)cn1.O=[N+]([O-])c1cc([N+](=O)[O-])c(O)c([N+](=O)[O-])c1 | inactive: 1.75%

Row | Compound | inhibition (reported as % activation of signal)
21 | CCOP(C)(=S)SCC(=O)NC(C)(CC)C(=O)O (stereo not given) | inactive: -0.35%
22 | CP(=O)(Nc1ccc(SC(F)(F)F)cc1)Oc1ccc(F)cc1 (stereo not given) | inactive: -2.54%
23 | Cc1ccccc1NP(C)(=O)Nc1ccccc1C | inactive: -2.21%
24 | CP(=O)(Nc1ccc2c(c1)OCCO2)Oc1ccccc1 (stereo not given) | inactive: -2.3%
25 | O=C(OCCCN1CCCC1)C(O)(c1ccccc1)C1CCCCC1 (stereo not given) | inactive: -0.53%
26 | COc1ccccc1OP(C)(=O)Nc1c(C)n(C)n(-c2ccccc2)c1=O (stereo not given) | inactive: -2.46%
27 | CCc1ccc(OP(C)(=O)Nc2cccnc2)cc1 (stereo not given) | inactive: 1.44%
28 | CP(=O)(Oc1ccccc1)N1CCOC1=O (stereo not given) | inactive: -0.65%
29 | COc1ccc(OP(C)(=O)Nc2ccc(Br)cc2)cc1 (stereo not given) | inactive: -0.13%
30 | CCN(CC)CC(O)COC(=O)C(O)(c1ccccc1)C1CCCCC1 (stereo not given) | inactive: -1.72%
31 | CN(C)C(=O)c1c([N+](=O)[O-])cc([N+](=O)[O-])cc1[N+](=O)[O-] | inactive: -3.47%
32 | COc1ccccc1OP(C)(=O)Nc1ccccc1Br (stereo not given) | inactive: 0.04%
33 | CC(C)(C)c1ccc(OP(C)(=O)O)cc1 | inactive: 1.83%
34 | CP(=O)(Nc1ccc(Cl)cc1)Oc1ccc(F)cc1 (stereo not given) | inactive: -2.03%
35 | CCOC(=O)c1ccc(NP(C)(=O)Oc2ccc(Cl)cc2)cc1 (stereo not given) | inactive: 0.05%
36 | CP(=O)(OC12CC3CC(CC(C3)C1)C2)OC12CC3CC(CC(C3)C1)C2 | inactive: -1.78%
37 | COc1ccccc1OP(C)(=O)Nc1ccc(C)c(C)c1 (stereo not given) | inactive: -1.06%
38 | COc1ccc(OP(C)(=O)Nc2ccccc2Br)cc1 (stereo not given) | inactive: -0.7%
39 | Cc1cc(C)cc(OP(C)(=O)Nc2cccc(C(F)(F)F)c2)c1 (stereo not given) | inactive: 0.9%
40 | O=C1C(O)=C([N+](=O)[O-])C(=O)C(O)=C1[N+](=O)[O-] | active: 86.9%

Row | Compound | inhibition (reported as % activation of signal)
41 | CP(=O)(Nc1ccc(Cl)cc1Cl)Oc1ccccc1 (stereo not given) | inactive: 1.71%
42 | CCCCCCCCCCCCCCCC1C[N+](C)(C)CCOP(C)(=O)O1 (stereo not given) | inactive: 7.26%
43 | CP(=O)(OCCOc1ccccc1)OCCOc1ccccc1 | inactive: 3.77%
44 | COc1ccc(OP(C)(=O)Nc2ccccn2)cc1 (stereo not given) | inactive: 14.6%
45 | CN(C)CCOC(=O)C(O)(c1ccccc1)C1CCCC1 (stereo not given) | inactive: 2%
46 | COc1ccccc1OP(C)(=O)Nc1ccc(Br)cc1 (stereo not given) | inactive: 0.91%
47 | COc1ccccc1OP(C)(=O)Nc1ccc(C)cc1C (stereo not given) | inactive: 3.71%
48 | CP(=O)(Nc1ccccn1)Oc1ccccc1 (stereo not given) | inactive: 0.67%
49 | CCc1ccc(OP(C)(=O)O)cc1 | inactive: 1.46%
50 | Cc1c(NP(C)(=O)Oc2ccc(C(C)C)cc2)c(=O)n(-c2ccccc2)n1C (stereo not given) | inactive: 0.96%
51 | O=[N+]([O-])c1cc([N+](=O)[O-])c(Nc2ccccn2)c([N+](=O)[O-])c1 | inactive: -9.71%
52 | CCN(CC)CCCOC(=O)C(O)(c1ccccc1)c1ccccc1 | inactive: 1.31%
53 | O=[N+]([O-])c1ccc2c(c1)C=Nc1ccccc1O2 | inactive: 2.4%
54 | Cc1cccc(C)c1OP(C)(N)=O (stereo not given) | inactive: -1.27%
55 | CC(C)(C)c1ccc(OP(C)(=O)Nc2ccc(SC(F)(F)F)cc2)cc1 (stereo not given) | inactive: -24.1%
56 | O=[N+]([O-])c1cc([N+](=O)[O-])c(Nc2cccnc2)c([N+](=O)[O-])c1 | inactive: 9.3%
57 | Cc1cc(C)cc(OP(C)(N)=O)c1 (stereo not given) | inactive: -3.98%
58 | COc1ccc(OP(C)(=O)Nc2cccc(F)c2)cc1 (stereo not given) | inactive: 2.31%
59 | COc1ccccc1OP(C)(=O)Nc1cc(Cl)ccc1C (stereo not given) | inactive: 4.5%
60 | Cc1ccc(NP(C)(=O)Oc2ccccc2)c(C)c1 (stereo not given) | inactive: 3.86%
